# Reference: BindingDB's records for doi:10.7270/Q2CV4GM1 (D3R/Abbott, 2015)
# Where “and” joins values, the source holds several entries; their conditions need not be identical. Identical values can stand only once.
# Biological target: T1, Tyrosine-protein kinase SYK [355-635] (Homo sapiens, UniProt P43405)
# T1 construct: 355-635
# Test: SYK assay_HTRF
smiles,measurement,value
"CS(=O)(=O)c1cccc(Nc2nccc(Nc3cccc4[nH]ncc34)n2)c1 [N4-(1H-indazol-4-yl)-N2-(3-(methylsulfonyl)phenyl)pyrimidine-2,4-diamine]",IC50,65.2 nM and 136 nM and 237 nM and 547 nM
